{"source": "patent US9295672B2", "about": "“Optically active pyrazolylaminoquinazoline, and pharmaceutical compositions and methods of use thereof” (Ambit Biosciences Corp., priority 2010, dated 2016)", "assay": "Pharmacokinetics of racemic hydrochloride and of R- and S-isomers, Tables 3 and 4 (Example 16)", "details": "racemic compound administered IV 1 mg/kg; label = analyte"}
{"smiles": "Cc1cc(Nc2nc(C(O)c3ccc(F)cc3)nc3ccccc23)n[nH]1", "note": "(racemic) [Racemate]", "values": [{"measurement": "Vz_obs", "result": 2.88, "unit": "L/kg"}]}
